Reference: US20210317140A1, “Heterocyclic Compounds and Methods of Use” (MEDIVATION TECHNOLOGIES, INC, priority 2013, published 2021)

Sequences of proteins named here, by UniProt entry; tags and fusion partners are left off. A change or cut given only in a name is not applied to a line headed by its entry.
UniProt O00329, whole entry: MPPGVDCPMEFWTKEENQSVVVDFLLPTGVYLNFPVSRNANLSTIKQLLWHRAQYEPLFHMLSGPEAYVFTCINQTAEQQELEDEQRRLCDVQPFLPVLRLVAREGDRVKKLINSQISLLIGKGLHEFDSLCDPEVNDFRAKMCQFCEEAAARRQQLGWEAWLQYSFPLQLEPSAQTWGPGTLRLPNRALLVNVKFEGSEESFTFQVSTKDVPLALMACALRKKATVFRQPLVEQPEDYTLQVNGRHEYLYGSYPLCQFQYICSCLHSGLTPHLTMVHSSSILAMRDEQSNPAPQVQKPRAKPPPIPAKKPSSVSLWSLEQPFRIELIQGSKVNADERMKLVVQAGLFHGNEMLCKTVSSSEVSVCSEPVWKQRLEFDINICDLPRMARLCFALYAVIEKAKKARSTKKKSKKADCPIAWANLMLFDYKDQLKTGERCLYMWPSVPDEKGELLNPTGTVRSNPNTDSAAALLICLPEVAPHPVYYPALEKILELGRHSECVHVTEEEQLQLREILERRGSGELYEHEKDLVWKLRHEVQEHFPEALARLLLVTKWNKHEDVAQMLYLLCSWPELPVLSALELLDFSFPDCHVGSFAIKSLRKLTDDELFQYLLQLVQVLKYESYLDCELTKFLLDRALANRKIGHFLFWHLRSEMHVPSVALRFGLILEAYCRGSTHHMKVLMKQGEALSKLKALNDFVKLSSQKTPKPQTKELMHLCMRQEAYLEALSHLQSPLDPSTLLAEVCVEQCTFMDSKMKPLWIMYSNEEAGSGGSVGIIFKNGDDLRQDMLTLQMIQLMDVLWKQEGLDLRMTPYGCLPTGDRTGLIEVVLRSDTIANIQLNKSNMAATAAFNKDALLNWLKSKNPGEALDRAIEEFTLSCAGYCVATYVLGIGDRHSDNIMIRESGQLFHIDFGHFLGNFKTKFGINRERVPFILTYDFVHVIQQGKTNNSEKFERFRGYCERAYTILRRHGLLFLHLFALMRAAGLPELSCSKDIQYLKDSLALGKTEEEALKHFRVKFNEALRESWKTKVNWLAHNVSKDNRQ
UniProt Q06187, whole entry: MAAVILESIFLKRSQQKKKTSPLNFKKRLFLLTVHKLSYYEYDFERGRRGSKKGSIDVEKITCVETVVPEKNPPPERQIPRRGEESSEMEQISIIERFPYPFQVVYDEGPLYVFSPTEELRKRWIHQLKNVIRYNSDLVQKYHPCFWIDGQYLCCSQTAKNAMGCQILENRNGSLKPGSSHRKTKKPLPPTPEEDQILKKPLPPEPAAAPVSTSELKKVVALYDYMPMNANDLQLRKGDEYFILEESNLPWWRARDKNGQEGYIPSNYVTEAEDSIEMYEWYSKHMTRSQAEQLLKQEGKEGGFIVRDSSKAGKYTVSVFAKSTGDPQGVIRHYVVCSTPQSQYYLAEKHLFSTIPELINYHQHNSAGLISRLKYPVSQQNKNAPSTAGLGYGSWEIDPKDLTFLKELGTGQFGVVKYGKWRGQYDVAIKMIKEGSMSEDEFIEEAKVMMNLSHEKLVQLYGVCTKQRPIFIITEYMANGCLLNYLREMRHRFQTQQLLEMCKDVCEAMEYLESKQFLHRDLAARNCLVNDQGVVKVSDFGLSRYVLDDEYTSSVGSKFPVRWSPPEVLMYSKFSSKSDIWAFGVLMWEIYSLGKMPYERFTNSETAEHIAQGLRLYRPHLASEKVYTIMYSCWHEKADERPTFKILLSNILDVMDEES
UniProt P27986, whole entry partner: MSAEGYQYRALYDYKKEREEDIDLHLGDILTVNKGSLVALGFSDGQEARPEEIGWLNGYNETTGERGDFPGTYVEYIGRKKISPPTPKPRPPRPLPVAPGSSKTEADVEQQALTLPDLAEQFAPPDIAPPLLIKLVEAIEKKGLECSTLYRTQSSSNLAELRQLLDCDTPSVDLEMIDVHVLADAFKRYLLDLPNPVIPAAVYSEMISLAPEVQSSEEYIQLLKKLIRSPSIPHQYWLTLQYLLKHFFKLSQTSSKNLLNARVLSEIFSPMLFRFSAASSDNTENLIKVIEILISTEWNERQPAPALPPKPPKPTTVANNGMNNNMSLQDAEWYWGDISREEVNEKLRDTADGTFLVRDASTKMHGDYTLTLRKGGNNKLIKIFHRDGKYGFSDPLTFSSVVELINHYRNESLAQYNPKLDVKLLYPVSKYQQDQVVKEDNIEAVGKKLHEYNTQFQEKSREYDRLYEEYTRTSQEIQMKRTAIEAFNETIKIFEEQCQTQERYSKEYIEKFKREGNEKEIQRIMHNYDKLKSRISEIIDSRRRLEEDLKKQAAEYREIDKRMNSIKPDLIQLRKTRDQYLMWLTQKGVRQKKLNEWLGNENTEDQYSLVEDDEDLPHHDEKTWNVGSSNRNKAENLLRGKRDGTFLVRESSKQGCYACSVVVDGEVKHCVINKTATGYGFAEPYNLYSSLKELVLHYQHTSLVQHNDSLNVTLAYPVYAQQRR

Columns and labels:
[1] = molecular target: PI3Kδ (Homo sapiens, UniProt O00329); assay: PI3Kδ kinase assay (HTRF, PIP3 detection); assay type: biochemical; settings: 10 μM ATP, tested form: HCl
[2] = molecular target: BTK (Homo sapiens, UniProt Q06187); assay: BTK kinase assay (HotSpot, 33P ATP); assay type: biochemical; settings: 10 μM ATP, tested form: HCl

**Q.** Which “PI3Kδ @ 0.1 μM (% Inh)” value ([1]; 0.1 μM compound) does the source give for `Cc1ccc(-c2nn(C3Cc4ccccc4C3)c3ncnc(N)c23)cc1O` here?
**A.** 14.07 % Inh

**Q.** And the “PI3Kδ @ 1 μM (% Inh)” value ([1]; 1 μM compound)?
**A.** 86.35 % Inh

**Q.** What about the “BTK @ 0.1 μM (% Inh)” value ([2]; 0.1 μM compound) of the same molecule?
**A.** 74.18 % Inh

**Q.** And the “BTK @ 1 μM (% Inh)” value ([2]; 1 μM compound)?
**A.** 94.77 % Inh
